# Experimental properties from OPERA 2.9

Data: OPERA 2.9 data sets, kmansouri/OPERA on GitHub.

Melting points are in °C. Boiling points are in °C, nominally at 760 mmHg. logP is the log10 of the octanol-water partition coefficient; higher is more lipophilic. Water solubility is log10 of mol/L, nominally at 25 °C; higher is more soluble. Vapor pressures (log10 mmHg) refer to near room temperature, 15 to 30 °C; higher is more volatile.

* CCc1cn([C@H]2C[C@H](OC(=O)c3ccc(Cl)cc3)[C@@H](COC(=O)c3ccc(Cl)cc3)O2)c(=O)[nH]c1=O [3',5'-Bis-O-(4-chlorobenzoyl)-2'-deoxy-5-ethyluridine]: MP 194.8 °C; log solubility -6.551 (log10 mol/L)
* O=C(O)CCCCCCC/C=C/CCCCCCCC(=O)O [(9E)-9-Octadecenedioic acid]: MP 89.5 °C; log solubility -6.017 (log10 mol/L)
* CC(C/N=C/c1ccccc1O)/N=C/c1ccccc1O (stereo partly drawn) [N,N'-Disalicylidene-1,2-diaminopropane]: logP 3.6; log solubility -3.172 (log10 mol/L)
* CCCC(C)C(=O)OCC (stereo not drawn) [Ethyl 2-methylpentanoate]: logP 2.09; log solubility -2.49 (log10 mol/L); log vapor pressure 0.754 (log10 mmHg)
* CCCC(O)CC[C@@H]1[C@@H](C)CCCC1(C)C (stereo in doubt): BP 295.1 °C; logP 5.8; log solubility -3.94 (log10 mol/L); log vapor pressure -3.185 (log10 mmHg)
* Cc1nc2n(c(=O)c1CCN1CCC(/C(=N/O)c3ccc(F)cc3F)CC1)CCCC2 [Risperidone Z-oxime]: MP 194.6 °C; log solubility -3.551 (log10 mol/L); log vapor pressure -8.106 (log10 mmHg)
* CCN(CC)c1ccc2nc3ccc(=[N+](CC)CC)cc-3oc2c1.O=C[O-] [Phenoxazin-5-ium, 3,7-bis(diethylamino)-, formate]: MP 163 °C; logP 2.8; log solubility -2.431 (log10 mol/L)
* CC(C)CN(C=O)CC(C)C [N,N-Bis(2-methylpropyl)formamide]: logP 1.9; log vapor pressure -1.236 (log10 mmHg)
* O=C(O)c1ccccc1P(c1ccccc1)c1ccccc1 [Benzoic acid, 2-(diphenylphosphino)-]: MP 179.4 °C; logP 2.9; log solubility -5.691 (log10 mol/L)
* O=c1[nH]c2cc(/N=C/c3c([O-])ccc4ccccc34)c(/N=C/c3c([O-])ccc4ccccc34)cc2[nH]1.[Ni+2]: logP 1.2; log solubility -7.627 (log10 mol/L)
* OC1(c2ccc(-c3ccc(C4(O)c5ccccc5-c5ccccc54)cc3)cc2)c2ccccc2-c2ccccc21: MP 315.9 °C; logP 4.88; log solubility -8.41 (log10 mol/L)
* CC(C)(C)c1cc(CCC(=O)OCC(COC(=O)CCc2cc(C(C)(C)C)c(O)c(C(C)(C)C)c2)(COC(=O)CCc2cc(C(C)(C)C)c(O)c(C(C)(C)C)c2)COC(=O)CCc2cc(C(C)(C)C)c(O)c(C(C)(C)C)c2)cc(C(C)(C)C)c1O [Irganox 1010]: logP 1.36; log vapor pressure -12 (log10 mmHg)
* CC(C)CC1CC(C)(O)CCO1 (stereo not drawn) [2-Isobutyl-4-methyltetrahydropyran-4-ol]: logP 1.65; log solubility -0.789 (log10 mol/L)
* COCc1ccc(-c2ccc(COC)cc2)cc1 [4,4'-Bis(methoxymethyl)-1,1'-biphenyl]: log solubility -4.002 (log10 mol/L); log vapor pressure -6.195 (log10 mmHg)
* Cc1cc(C(C)(C)C)c(O)c(C)c1Cn1c(=O)n(Cc2c(C)cc(C(C)(C)C)c(O)c2C)c(=O)n(Cc2c(C)cc(C(C)(C)C)c(O)c2C)c1=O [Cyanox CY 1790]: log solubility -7.544 (log10 mol/L); log vapor pressure -6.031 (log10 mmHg)
* CCC(Cc1ccccc1)(C(=O)c1ccc(N2CCOCC2)cc1)N(C)C (stereo not drawn): logP 2.91; log solubility -4.793 (log10 mol/L); log vapor pressure -8.236 (log10 mmHg)
* CC(C)c1ccc2cc(C(C)C)ccc2c1 [2,6-Diisopropylnaphthalene]: log solubility -4.29 (log10 mol/L); log vapor pressure -2.426 (log10 mmHg)
* CCOC(=O)C1(OC(=O)Cc2ccc(Cl)cc2Cl)CCCCC1: MP 44.2 °C; log solubility -5.277 (log10 mol/L)
* C/C=C/C(=O)C1=C(C)C=CCC1(C)C: MP 1.8 °C; logP 3.4; log solubility -3.005 (log10 mol/L); log vapor pressure -1.648 (log10 mmHg)
* COC(=O)C(N)C(C)O (stereo not drawn): logP -1.2; log vapor pressure -2.046 (log10 mmHg)
* CCCCCCCCCCCCn1ccnc1 [1-Dodecyl-1H-imidazole]: MP 7 °C; log vapor pressure -4.18 (log10 mmHg)

Extract of 2 entries:

- COCc1ccc(-c2ccc(COC)cc2)cc1 [4,4'-Bis(methoxymethyl)-1,1'-biphenyl]: log solubility -4.002 (log10 mol/L); log vapor pressure -6.195 (log10 mmHg)
- CCCC(C)C(=O)OCC (stereo not drawn) [Ethyl 2-methylpentanoate]: logP 2.09; log solubility -2.49 (log10 mol/L); log vapor pressure 0.754 (log10 mmHg)

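The OPERA project collected these measurements from public sources as training and test data for property models. One number stands for a compound and property, with no spread given. How each value was measured is not recorded, so precision varies. The measured form (salt, isomer or mixture) is not always the one drawn. Unmarked limits or estimates from the upstream databases cannot be ruled out.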